# Measurements as given in PMC4580987, “Catalytic site inhibition of insulin-degrading enzyme by a small molecule induces glucose intolerance in mice” (Nature Communications, 2015).
# How the values were obtained:
# isolated mouse islets = details: 1 versus vehicle
# Experimental: Digestion was stopped by addition of cold HBSS with 10% FCS. The islets were washed twice in HBSS with FCS and once in RPMI with FCS. […] The next day, the islets were incubated in fresh DMEM with 10% FCS without glucose for 90 min. Then glucose at 2.8 mM together with BDM44378 was added; after 1 h, the supernatant was removed and replaced by fresh medium with 28 mM glucose, followed by another 1-h incubation in the presence or absence of inhibitor.
# IDE [1] = molecular target: T1, IDE (Homo sapiens, UniProt P14735); assay: 19F NMR ligand-observed interaction with the enzyme; format: binding; set-up: made in house; details: 5 μM enzyme
# T1 sequence (P14735 1-1019): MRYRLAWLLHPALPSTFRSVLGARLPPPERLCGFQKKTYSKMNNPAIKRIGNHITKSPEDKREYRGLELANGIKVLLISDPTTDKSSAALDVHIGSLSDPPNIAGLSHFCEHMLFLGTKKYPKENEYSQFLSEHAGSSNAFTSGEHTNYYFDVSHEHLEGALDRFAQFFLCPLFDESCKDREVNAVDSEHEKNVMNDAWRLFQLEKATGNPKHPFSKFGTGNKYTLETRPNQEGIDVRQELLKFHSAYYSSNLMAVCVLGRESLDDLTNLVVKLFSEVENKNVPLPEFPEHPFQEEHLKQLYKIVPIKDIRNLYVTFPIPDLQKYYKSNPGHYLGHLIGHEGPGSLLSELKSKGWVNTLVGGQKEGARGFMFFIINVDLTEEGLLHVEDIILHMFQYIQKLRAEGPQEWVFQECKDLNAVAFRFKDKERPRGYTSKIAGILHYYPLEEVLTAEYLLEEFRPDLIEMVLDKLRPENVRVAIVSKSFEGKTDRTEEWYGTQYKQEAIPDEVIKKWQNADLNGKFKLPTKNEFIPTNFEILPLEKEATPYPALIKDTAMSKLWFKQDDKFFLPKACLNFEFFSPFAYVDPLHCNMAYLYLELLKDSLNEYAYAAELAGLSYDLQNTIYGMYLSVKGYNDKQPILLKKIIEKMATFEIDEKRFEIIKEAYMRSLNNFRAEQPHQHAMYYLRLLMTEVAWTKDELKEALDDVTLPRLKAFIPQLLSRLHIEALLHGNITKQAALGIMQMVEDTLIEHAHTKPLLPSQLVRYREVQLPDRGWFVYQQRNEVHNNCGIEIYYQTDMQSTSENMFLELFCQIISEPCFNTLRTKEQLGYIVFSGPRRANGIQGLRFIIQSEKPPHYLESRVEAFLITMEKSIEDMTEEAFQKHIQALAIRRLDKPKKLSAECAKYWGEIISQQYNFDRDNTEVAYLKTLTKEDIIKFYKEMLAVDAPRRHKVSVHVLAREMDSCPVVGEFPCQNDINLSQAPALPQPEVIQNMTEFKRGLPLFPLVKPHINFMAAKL
# Experimental: The ^19F NMR measurements were done at 20 °C using 3 mm tubes containing 200 μl of sample on a Bruker 600 MHz Avance I spectrometer equipped with a CP-QCI-F cryoprobe with Fluor Cryo-detection. ^19F NMR experiments were done on control samples with compound 1 or compound 16 at 50 μM, 37.5 μM, 25 μM, 12.5 μM and 6.25 μM, in a 50 mM Hepes 100 mM NaCl buffer with a constant percentage (1%) of DMSO. […] The carrier frequency was set at −100 p.p.m. with a spectral window of 40 ppm, and 4,024 scans were recorded per sample, except for the 6.25 μM sample for which 12,288 scans were recorded.
# IDE [2] = molecular target: T1, IDE; assay: Reversibility of IDE inhibition by rapid dilution; format: biochemical; details: compound at IC50 × 10
# C57BL/6J mice = assay: Oral glucose tolerance test (OGTT) in C57BL/6J mice; format: in vivo, mouse; details: 50 mg kg^−1 ip, 3 g kg^−1 oral glucose
# Experimental: OGTT and IPGTT were performed on 11 to 16 week-old male or female mice (n=4–7 per experimental group). C57BL/6J mice were purchased from Charles River Laboratories (France), Stock no. 000664. C57BL/6J Ide−/− mice were obtained from Guenette[20] and bred in the animal facility of INSERM U1151. WT C57BL/6J mice of the same genetic background were bred in the same animal facility in parallel. NOD Ide−/− mice were generated by backcrossing C57BL/6J Ide−/− mice with NOD wt mice bred in the animal facility of INSERM U1151 and maintained in this facility together with WT NOD mice. Normoglycemic WT and Ide−/− female NOD mice aged 14 weeks were used for OGTTs. Following a 6 h fasting period, a small tail cut was made, basal blood glucose was determined. […] Fifteen minutes later, blood glucose concentrations were measured before and after (up to 120 min, as shown) oral (2 g kg^−1 or 3 g kg^−1, as shown) or intraperitoneal (1.5 g kg^−1) glucose administration. […] Blood glucose levels were determined using an Accu-Check glucometer (Roche Diagnostics). Areas under the curves (AUC) for OGTT and IPGTT were calculated to evaluate glucose tolerance. Plasma insulin concentrations were measured by ELISA (cat. no. 10-1247-01,Mercodia) in blood samples collected 15 min before and 15 and 90 min relative to oral glucose injection. […]
smiles,measurement,setting,value
O=C(C[C@@H](Cc1ccc2ccccc2c1)n1cc(CNC(=O)c2ccc(F)cc2)nn1)NO [Compound 1],ratio of stimulation of insulin secretion by low and high glucose,isolated mouse islets,not altered
same,19F NMR signal in the presence of enzyme at 2:1 or 1:1 compound:enzyme ratio,IDE [1],vanishing signal
same,enzyme activity after rapid 100-fold dilution of enzyme–inhibitor mixture (reversibility),IDE [2],fully recovered
same,"AUC of glycaemia in OGTT, WT C57BL/6J",C57BL/6J mice,significantly increased
